Experimental data: US11180528B2 (priority 2018, dated 2021)

Experiments:
[1] = tested on: G. mellonella larvae; test: Peptide toxicity in Galleria mellonella larvae; conditions: 10 μg peptide per larva, 48 h
[2] = tested on: A549 human lung epithelial cells; test: MTT cell proliferation (cytotoxicity) assay; conditions: 100 μg/ml peptide, 24 h

CC(C)C[C@H](NC(=O)[C@H](CCCCN)NC(=O)[C@H](CCC(N)=O)NC(=O)[C@H](CCCCN)NC(=O)[C@H](Cc1ccccc1)NC(=O)[C@H](CCCCN)NC(=O)[C@H](CCCCN)NC(=O)[C@H](Cc1ccccc1)NC(=O)[C@H](Cc1c[nH]cn1)NC(=O)[C@H](CCC(N)=O)NC(=O)[C@H](CO)NC(=O)[C@H](Cc1ccccc1)NC(=O)[C@H](Cc1c[nH]c2ccccc12)NC(=O)[C@H](CC(N)=O)NC(=O)[C@H](CCCNC(=N)N)NC(=O)[C@H](Cc1ccccc1)NC(=O)[C@@H](N)CCCCN)C(=O)N[C@@H](CCCCN)C(=O)N[C@@H](CC(N)=O)C(=O)N[C@H](C(=O)N[C@@H](Cc1ccccc1)C(=O)N[C@@H](C)C(=O)O)[C@@H](C)O [GATR-3]
death of larvae (toxicity) [1]: not found to have significant death
suppression of cell proliferation [2]: some statistically significant suppression of cell proliferation

CC(C)C[C@H](NC(=O)[C@H](CCCNC(=N)N)NC(=O)[C@H](CCC(N)=O)NC(=O)[C@H](CCCNC(=N)N)NC(=O)[C@H](Cc1c[nH]c2ccccc12)NC(=O)[C@H](CCCNC(=N)N)NC(=O)[C@H](CCCNC(=N)N)NC(=O)[C@H](Cc1c[nH]c2ccccc12)NC(=O)[C@H](Cc1c[nH]cn1)NC(=O)[C@H](CCC(N)=O)NC(=O)[C@H](CO)NC(=O)[C@H](Cc1ccccc1)NC(=O)[C@H](Cc1c[nH]c2ccccc12)NC(=O)[C@H](CC(N)=O)NC(=O)[C@H](CCCNC(=N)N)NC(=O)[C@H](Cc1ccccc1)NC(=O)[C@@H](N)CCCCN)C(=O)N[C@@H](CCCNC(=N)N)C(=O)N[C@@H](CC(N)=O)C(=O)N[C@H](C(=O)N[C@@H](Cc1c[nH]c2ccccc12)C(=O)N[C@@H](C)C(=O)O)[C@@H](C)O [GATR-6]
death of larvae (toxicity) [1]: not found to have significant death
suppression of cell proliferation [2]: some statistically significant suppression of cell proliferation
